Results on 1 compound are retold here after patent US8815809B2, “Cysteine protease inhibitors” (Medivir UK Ltd, priority 2009, dated 2014).

Sequences of proteins named here, by UniProt entry; tags and fusion partners are left off. Residues count along the entry.
UniProt P25774, 115-331 limits assumed: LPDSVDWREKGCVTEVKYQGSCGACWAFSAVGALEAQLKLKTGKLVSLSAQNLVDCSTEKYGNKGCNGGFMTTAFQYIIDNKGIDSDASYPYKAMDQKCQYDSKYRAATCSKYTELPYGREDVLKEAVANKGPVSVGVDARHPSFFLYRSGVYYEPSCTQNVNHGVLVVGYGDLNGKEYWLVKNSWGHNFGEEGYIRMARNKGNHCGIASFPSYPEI
UniProt P43235, 115-329 limits assumed: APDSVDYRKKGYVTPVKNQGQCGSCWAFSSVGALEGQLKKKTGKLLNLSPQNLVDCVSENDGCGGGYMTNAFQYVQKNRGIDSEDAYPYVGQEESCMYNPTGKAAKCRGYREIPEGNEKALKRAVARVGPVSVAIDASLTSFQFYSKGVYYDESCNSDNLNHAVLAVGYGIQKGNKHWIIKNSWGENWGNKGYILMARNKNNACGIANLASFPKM
UniProt P07711, 114-333 limits assumed: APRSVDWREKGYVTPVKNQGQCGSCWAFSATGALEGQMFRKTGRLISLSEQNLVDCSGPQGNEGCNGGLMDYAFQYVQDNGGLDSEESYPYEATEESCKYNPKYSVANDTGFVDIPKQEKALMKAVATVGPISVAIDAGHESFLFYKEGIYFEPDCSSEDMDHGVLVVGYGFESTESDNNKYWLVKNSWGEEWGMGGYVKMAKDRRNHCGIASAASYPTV

For one assay, the target named is human cathepsin S (Homo sapiens, UniProt P25774). Kind of assay: Cathepsin S Ki determination. The conditions noted are these: read-out: Ki Cat. S; baculovirus-expressed human cathepsin S, boc-Val-Leu-Lys-AMC substrate, pH 6.5.
A further assay has as its target cathepsin K (Homo sapiens, UniProt P43235). Kind of assay: Determination of cathepsin K proteolytic catalytic activity (Ki). Conditions: read-out: Ki Cat. K; human recombinant enzyme, H-D-Ala-Leu-Lys-AMC substrate.
For a further assay, the target named is human cathepsin L (Homo sapiens, UniProt P07711). Kind of assay: Cathepsin L Ki. The conditions noted are these: read-out: Ki Cat. L, H-D-Val-Leu-Lys-AMC substrate, pH 5.5.

In the case of `COC(=O)N[C@@H](CC1(F)CCCC1)C(=O)NC1(C(=O)C(=O)Nc2ccn(C)n2)CCC1`, the figures for the Ki on human cathepsin S, on cathepsin K and on human cathepsin L were 2.6 nM, 280 nM and 2000 nM, respectively.
